AlphaSeq binding of Ab-14 light chain variants to a spike HR2 peptide

Target: peptide PDVDLGDISGINAS, taken from heptad repeat 2 (HR2) of SARS-CoV-2 spike.

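The starting antibody came from a phage panning campaign against this peptide. This is the validation round: designs drawn from the data on random variants, tested in the same kind of assay. Several design methods are mixed in this list. The scFvs were displayed on barcoded MATa yeast, the peptide on MATalpha yeast. Binding brings cells together so that they mate, and sequencing counts the barcode pairs among the diploids. A regression on co-assayed BCL2-family reference pairs converts the normalised counts of each replicate to an apparent Kd. Each pool was mated in six replicate cultures.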

Each scFv is VH, a (GGGGS)3 linker, VL, as in the parent Ab-14, and differs from it in the CDRs of the light chain only.
VH: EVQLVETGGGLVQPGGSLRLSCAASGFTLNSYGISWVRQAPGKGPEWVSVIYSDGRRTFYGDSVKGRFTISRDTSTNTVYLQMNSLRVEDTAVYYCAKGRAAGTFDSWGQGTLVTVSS
VL: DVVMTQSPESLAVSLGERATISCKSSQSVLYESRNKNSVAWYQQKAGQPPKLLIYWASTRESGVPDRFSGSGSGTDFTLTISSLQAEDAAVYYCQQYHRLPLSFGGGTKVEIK

Variants are written as CDR1, CDR2 and CDR3 of the light chain (limits as in the source). Parent: KSSQSVLYESRNKNSVA, WASTRES, QQYHRLPLS. Variants here have at most six changes. Numbers give log10(Kd / nM), so 0 is 1 nM and 3 is 1 µM. Smaller is tighter. The mean shown is taken over the replicates in which the pair was detected. "nd" means that the variant was in the library but no mating with the target was seen in that replicate; the authors take this as a sign of poor binding, and no number exists. Three control strains display no target. For all light chain designs, 4% of the pairings with them gave a signal, with a median of 2.64 and one signal in twenty below 1.59, so weak values seen in few replicates may be background. The control count says in how many pairings with the empty strains this scFv gave a signal. The authors averaged sequences with at least three values out of six and counted those with two or fewer as poor binders. Values of this round are not directly comparable with the first-round values of the same sequences.

* KSLQSWPYESRNKNSVA, HASTREQ, QQYHRLPLS: 1.06, 0.71, 0.48, 0.92, 0.85, 1.21 (mean 0.87; controls 1 of 18)
* KVQQSMLYESRNKNSVA, DASTRES, QQYHRLPLS: 0.42, 0.01, 0.17, -0.16, 0.46, 0.03 (mean 0.16; controls 0 of 18)
* KSGQGVLYESRNKNSVA, GGSTRES, QQYHRLPLS: 0.32, -0.01, 0.24, -0.21, -0.01, 0.26 (mean 0.10; controls 1 of 18)
* KSQQSCLYESRNKNSVA, WASTRER, QQYHRLPLS: nd, nd, nd, nd, nd, nd (controls 0 of 18)
* KSSQSVTYESRNKNSVA, WASTRVS, QQYHRLPLC: 3.46, nd, 1.58, nd, nd, nd (mean 2.52; controls 0 of 18)
* KTSQSVLYESRNKNSVA, WASTRES, QMYHRLPLS: nd, nd, nd, nd, nd, nd (controls 0 of 18)
* KSSQSWLYESGNKNSVA, GASTREN, QQYHRLPLS: 0.18, -0.12, -0.36, -0.23, -0.32, -0.02 (mean -0.14; controls 1 of 18)
* KLSQSVLYESRNKNSVA, NASTRMS, QSYHRLPLS: 0.05, 0.08, -0.23, -0.30, 0.05, -0.16 (mean -0.09; controls 3 of 18)
* KNSISYLYEERNKNSVA, EASTRES, QQYHRLPKS: nd, nd, 1.28, nd, nd, nd (controls 0 of 18)
* KLSQSVLYESRMKNSVA, NASTRMS, QQYHRLPLS: -0.04, -0.09, -0.24, -0.27, -0.25, -0.06 (mean -0.16; controls 0 of 18)
* KLWQSVPYESRNKNSVA, NASTRES, QQYHRLPLS: 0.49, 0.81, 0.64, 0.51, 0.67, 0.93 (mean 0.68; controls 0 of 18)
* KVSQSKLYESRNKNSVA, EASTRES, QQYHRLPLS: 0.17, -0.14, -0.26, 0.09, 0.09, -0.14 (mean -0.03; controls 0 of 18)
* KVSMSVQYEARNKNSVA, EASTRED, QQYHRLPLS: 0.13, 0.33, 0.15, 0.14, 0.20, 0.46 (mean 0.23; controls 1 of 18)
* KSSQQVLMESRNMNSVA, NASTREE, QQYHRLPLS: -0.39, -0.35, -0.60, -0.58, -0.54, -0.45 (mean -0.48; controls 0 of 18)
* KSSQSVLYESRNLNSVA, WASERES, QQYHNLPLS: 1.21, 2.07, 2.50, 3.26, 1.64, 2.31 (mean 2.17; controls 1 of 18)
* KVSQAVPYESRNKNNVA, DGSTRES, QQYHRLPLS: -0.41, -0.48, -0.57, -0.75, -0.52, -0.53 (mean -0.54; controls 1 of 18)
* KLSQSNLYEWRNDNSVA, NASQRES, QQYHRLPLS: -0.05, -0.09, -0.23, -0.11, 0.07, 0.08 (mean -0.05; controls 0 of 18)
* KLPQSWPYESRNKNSVA, NASTRES, QQYHRLPLS: -0.06, 0.00, -0.29, -0.26, -0.14, -0.09 (mean -0.14; controls 0 of 18)
* KFSQSVFYESHNKNSVA, WASTCES, QQYHRLPLS: nd, nd, nd, nd, nd, nd (controls 0 of 18)
* KSSQSFLYESRNKNSVA, GASTRES, QQYLRLTLM: 1.23, 0.77, 0.47, 0.99, 0.49, 0.71 (mean 0.78; controls 1 of 18)
* KLSQSVLYESRNKNSVA, EASTRES, QQYHRLPLW: -0.35, -0.34, -0.54, -0.41, -0.38, -0.40 (mean -0.40; controls 1 of 18)
* KLSQSELYESRNKNSVA, NASTRRS, QQYHRLPLS: -0.11, -0.20, -0.05, -0.84, -0.26, -0.64 (mean -0.35; controls 0 of 18)
* KFSDSVLLESRQKNSVA, NASTRES, QQYHRLPLS: -0.01, 0.83, 0.14, 0.03, -0.35, 0.56 (mean 0.20; controls 0 of 18)
* KLSQSVLYESRQKNSVA, NASQRES, QQYHRLPLS: -0.31, -0.41, -0.36, -0.53, -0.61, -0.22 (mean -0.41; controls 0 of 18)
* KLSQSVLAESRNKNSVA, WASTRES, QQYHRLPLS: 0.19, 0.07, -0.16, 0.07, -0.26, -0.04 (mean -0.02; controls 2 of 18)
* KMSQSVLYESRNKNSVA, WASTRES, QQYHRLPTS: nd, 1.27, 1.70, 1.21, nd, 2.08 (mean 1.56; controls 1 of 18)
* KSSQSVLYEVRNKNSVA, WASTRES, QQYHRLPLS: nd, nd, nd, nd, nd, nd (controls 0 of 18)
* HLSQSVLMESRNKNSVA, EASTRES, QQYHRLPLS: 0.17, -0.14, -0.18, -0.28, -0.15, -0.13 (mean -0.12; controls 0 of 18)
* KVSQSVLQESRNKNSVA, DASTRES, QQYHRLPLS: -0.21, -0.41, -0.19, -0.38, -0.20, -0.15 (mean -0.26; controls 0 of 18)
* KLEFSDLNESRNKNSVA, EASTRES, QQYHRLPLS: 0.16, 0.09, 0.27, -0.01, -0.06, 0.22 (mean 0.11; controls 3 of 18)
* KLSQSTLYESRNKNSVA, NASTRCS, QQYHRLPLS: -0.21, -0.47, -0.62, -0.44, -0.43, -0.31 (mean -0.41; controls 1 of 18)
* VISQSVLYESRNKNSVA, AASTRES, QTYHRIPLS: 1.51, 0.87, 0.66, 0.84, 0.87, 1.49 (mean 1.04; controls 2 of 18)
* CLSQSWLYESRNKNSVA, NASTRES, QQYHRLPLS: -0.31, -0.47, -0.48, -0.68, -0.51, -0.37 (mean -0.47; controls 0 of 18)
* KVQQSVLYQSRNKNSVA, EASTRES, QQYHRLPLS: 0.06, -0.12, -0.28, -0.04, -0.15, -0.05 (mean -0.10; controls 5 of 18)
* KKSQSVLYESRNKNSVA, WASTGES, QQYHRLPLS: nd, nd, nd, nd, nd, 1.11 (controls 0 of 18)
* KFEQSVLYESRNKNSVA, NGSTRES, QQYHRLPLS: -0.18, -0.26, -0.40, -0.48, -0.33, -0.29 (mean -0.32; controls 1 of 18)
* KSSQSQDYESRNKNSVA, NASQRYQ, QQYHRLPLS: 0.35, 0.20, 0.26, 0.22, 0.21, 0.25 (mean 0.25; controls 4 of 18)
* KFSQWVLYESRTKNSVA, NGSTRES, QQYHRLPLS: -0.09, -0.17, -0.32, -0.30, -0.37, -0.06 (mean -0.22; controls 0 of 18)

From the AlphaSeq antibody data of Li et al. 2023 (doi:10.1038/s41467-023-39022-2), copy in the FLAb collection.